Target: T1, Histone deacetylase 8 (Homo sapiens, UniProt Q9BY41)
T1 sequence (Q9BY41 whole entry): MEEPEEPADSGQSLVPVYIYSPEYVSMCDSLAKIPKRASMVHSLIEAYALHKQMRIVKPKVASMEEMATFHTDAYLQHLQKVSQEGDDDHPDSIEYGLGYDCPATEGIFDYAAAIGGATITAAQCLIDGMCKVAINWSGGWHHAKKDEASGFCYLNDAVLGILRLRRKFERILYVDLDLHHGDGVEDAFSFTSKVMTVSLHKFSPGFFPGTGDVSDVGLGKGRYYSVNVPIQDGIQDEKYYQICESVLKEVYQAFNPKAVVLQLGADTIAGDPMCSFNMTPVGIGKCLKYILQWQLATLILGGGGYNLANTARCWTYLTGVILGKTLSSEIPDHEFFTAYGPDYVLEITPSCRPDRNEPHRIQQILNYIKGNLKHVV
Test: Inhibition of HDAC8 (unknown origin) by fluorescence based assay

- IC50: 205 nM
SMILES: O=C(CCCCCCC(=O)Nc1ccccc1)NO [VORINOSTAT]
